According to publication PMC10726352, “Discovery of KB-0742, a Potent, Selective, Orally Bioavailable Small Molecule Inhibitor of CDK9 for MYC-Dependent Cancers” (Journal of Medicinal Chemistry, 2023):

Legend:
[1] = rat
[2] = mouse
MT-3 = assay: OncoPanel Multiplexed Cytotoxicity Assay; type: cell-based

| SMILES | Vd,ss (i.v.) ([1]; i.v. 2.0 mg/kg) [L/kg] | F ([1]; p.o. 10 mg/kg) [%] | T1/2 (i.v.) ([2]; i.v. 1.0 mg/kg) [h] | F ([2]; p.o. 20 mg/kg) [%] | Cell Count Activity Area (MT-3) |
| --- | --- | --- | --- | --- | --- |
| CCC(CC)c1cc(N[C@H]2CC[C@H](N)C2)n2nccc2n1 [Compound 28, [(1S,3S)-3-[[5-(1-Ethylpropyl)pyrazolo[1,5-a]pyrimidin-4-ium-7-yl]amino]cyclopentyl]ammonium Dichloride] | 7.3 | 84.5 | 1.2 | 33 | – |
| CN[C@@H]1C[C@H]2O[C@@](C)([C@@H]1OC)n1c3ccccc3c3c4c(c5c6ccccc6n2c5c31)C(=O)NC4 [Staurosporine] | – | – | – | – | 4.02 |

Where two headings read alike, the source gives them in different places.
